# Molecular target: GLP-1 receptor (Homo sapiens, UniProt P43220)
# The chains behind the UniProt entries cited, without tags or fusion partners. Residues count along the entry.
# UniProt P43220, 24-463, species assumed: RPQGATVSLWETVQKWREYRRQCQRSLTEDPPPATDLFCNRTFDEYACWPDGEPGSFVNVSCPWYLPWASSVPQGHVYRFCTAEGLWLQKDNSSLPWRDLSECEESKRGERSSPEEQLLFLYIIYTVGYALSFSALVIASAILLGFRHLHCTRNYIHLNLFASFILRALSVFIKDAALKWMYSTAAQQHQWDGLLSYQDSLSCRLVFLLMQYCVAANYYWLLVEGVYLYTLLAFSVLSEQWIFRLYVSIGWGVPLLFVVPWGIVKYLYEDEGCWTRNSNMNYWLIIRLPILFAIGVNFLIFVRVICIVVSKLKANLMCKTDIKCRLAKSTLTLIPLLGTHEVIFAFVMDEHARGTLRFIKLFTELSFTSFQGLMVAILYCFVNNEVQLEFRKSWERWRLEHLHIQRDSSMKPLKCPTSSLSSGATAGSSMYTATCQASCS
# Experiment: GLP-receptor Luciferase assay of prodrug samples incubated in plasma
smiles,measurement,value
"CC[C@H](C)[C@H](NC(=O)[C@H](Cc1ccccc1)NC(=O)[C@H](CCC(=O)O)NC(=O)[C@H](CCCCN)NC(=O)[C@H](C)NC(=O)[C@H](C)NC(=O)[C@H](CCC(N)=O)NC(=O)CNC(=O)[C@H](CCC(=O)O)NC(=O)[C@H](CC(C)C)NC(=O)[C@H](Cc1ccc(O)cc1)NC(=O)[C@H](CO)NC(=O)[C@H](CO)NC(=O)[C@@H](NC(=O)[C@H](CC(=O)O)NC(=O)[C@H](CO)NC(=O)[C@@H](NC(=O)[C@H](Cc1ccccc1)NC(=O)[C@@H](NC(=O)CNC(=O)[C@H](CCC(=O)O)NC(=O)[C@H](C)NC(=O)[C@H](Cc1c[nH]cn1)NC(=O)CN(C)C(=O)[C@H](N)CCCCN)[C@@H](C)O)[C@@H](C)O)C(C)C)C(=O)N[C@@H](CS)C(=O)N[C@@H](Cc1c[nH]c2ccccc12)C(=O)N[C@@H](CC(C)C)C(=O)N[C@H](C(=O)N[C@@H](CCCCN)C(=O)NCC(=O)N[C@@H](CCCNC(=N)N)C(=O)O)C(C)C [dLys^−1-Sar^0,C^24GLP(7-36)]",half-life,~10 h

# — patent US8969288B2 (Indiana University Research and Technology Corporation, priority 2008, dated 2015)
